Experimental data from ChEMBL document CHEMBL4513141, “CO-ADD screening of NIH (USA) - Clinical Collection” (2021).
Most of the strong results are listed elsewhere, so they are rarer here than in the full data. Potency and affinity values are given separately.

Tested on: Pseudomonas aeruginosa
Details: Concentration 20 uM; ASSAY_TEST Inhibition of Bacterial Growth; detection method Absorption (OD600); MEDIA CAMHB; plate type 384well; NBS; CORNING #3640; time 18 hr

| SMILES | Inhibition [%] |
| --- | --- |
| COc1ccc(C[C@H](C)NC[C@@H](O)c2ccc(O)c(NC=O)c2)cc1.O.O.O=C(O)/C=C/C(=O)O | 12.67 |
| O.O=P1(N(CCCl)CCCl)NCCCO1 (configuration not stated) [CYCLOPHOSPHAMIDE] | 4.42 |
